From ChEMBL document CHEMBL3886193, “Bicyclic sulfonamide compounds as sodium channel inhibitors” (2015) come the findings set out here.

Sequences of proteins named here, by UniProt entry; tags and fusion partners are left off.
UniProt Q15858, whole entry: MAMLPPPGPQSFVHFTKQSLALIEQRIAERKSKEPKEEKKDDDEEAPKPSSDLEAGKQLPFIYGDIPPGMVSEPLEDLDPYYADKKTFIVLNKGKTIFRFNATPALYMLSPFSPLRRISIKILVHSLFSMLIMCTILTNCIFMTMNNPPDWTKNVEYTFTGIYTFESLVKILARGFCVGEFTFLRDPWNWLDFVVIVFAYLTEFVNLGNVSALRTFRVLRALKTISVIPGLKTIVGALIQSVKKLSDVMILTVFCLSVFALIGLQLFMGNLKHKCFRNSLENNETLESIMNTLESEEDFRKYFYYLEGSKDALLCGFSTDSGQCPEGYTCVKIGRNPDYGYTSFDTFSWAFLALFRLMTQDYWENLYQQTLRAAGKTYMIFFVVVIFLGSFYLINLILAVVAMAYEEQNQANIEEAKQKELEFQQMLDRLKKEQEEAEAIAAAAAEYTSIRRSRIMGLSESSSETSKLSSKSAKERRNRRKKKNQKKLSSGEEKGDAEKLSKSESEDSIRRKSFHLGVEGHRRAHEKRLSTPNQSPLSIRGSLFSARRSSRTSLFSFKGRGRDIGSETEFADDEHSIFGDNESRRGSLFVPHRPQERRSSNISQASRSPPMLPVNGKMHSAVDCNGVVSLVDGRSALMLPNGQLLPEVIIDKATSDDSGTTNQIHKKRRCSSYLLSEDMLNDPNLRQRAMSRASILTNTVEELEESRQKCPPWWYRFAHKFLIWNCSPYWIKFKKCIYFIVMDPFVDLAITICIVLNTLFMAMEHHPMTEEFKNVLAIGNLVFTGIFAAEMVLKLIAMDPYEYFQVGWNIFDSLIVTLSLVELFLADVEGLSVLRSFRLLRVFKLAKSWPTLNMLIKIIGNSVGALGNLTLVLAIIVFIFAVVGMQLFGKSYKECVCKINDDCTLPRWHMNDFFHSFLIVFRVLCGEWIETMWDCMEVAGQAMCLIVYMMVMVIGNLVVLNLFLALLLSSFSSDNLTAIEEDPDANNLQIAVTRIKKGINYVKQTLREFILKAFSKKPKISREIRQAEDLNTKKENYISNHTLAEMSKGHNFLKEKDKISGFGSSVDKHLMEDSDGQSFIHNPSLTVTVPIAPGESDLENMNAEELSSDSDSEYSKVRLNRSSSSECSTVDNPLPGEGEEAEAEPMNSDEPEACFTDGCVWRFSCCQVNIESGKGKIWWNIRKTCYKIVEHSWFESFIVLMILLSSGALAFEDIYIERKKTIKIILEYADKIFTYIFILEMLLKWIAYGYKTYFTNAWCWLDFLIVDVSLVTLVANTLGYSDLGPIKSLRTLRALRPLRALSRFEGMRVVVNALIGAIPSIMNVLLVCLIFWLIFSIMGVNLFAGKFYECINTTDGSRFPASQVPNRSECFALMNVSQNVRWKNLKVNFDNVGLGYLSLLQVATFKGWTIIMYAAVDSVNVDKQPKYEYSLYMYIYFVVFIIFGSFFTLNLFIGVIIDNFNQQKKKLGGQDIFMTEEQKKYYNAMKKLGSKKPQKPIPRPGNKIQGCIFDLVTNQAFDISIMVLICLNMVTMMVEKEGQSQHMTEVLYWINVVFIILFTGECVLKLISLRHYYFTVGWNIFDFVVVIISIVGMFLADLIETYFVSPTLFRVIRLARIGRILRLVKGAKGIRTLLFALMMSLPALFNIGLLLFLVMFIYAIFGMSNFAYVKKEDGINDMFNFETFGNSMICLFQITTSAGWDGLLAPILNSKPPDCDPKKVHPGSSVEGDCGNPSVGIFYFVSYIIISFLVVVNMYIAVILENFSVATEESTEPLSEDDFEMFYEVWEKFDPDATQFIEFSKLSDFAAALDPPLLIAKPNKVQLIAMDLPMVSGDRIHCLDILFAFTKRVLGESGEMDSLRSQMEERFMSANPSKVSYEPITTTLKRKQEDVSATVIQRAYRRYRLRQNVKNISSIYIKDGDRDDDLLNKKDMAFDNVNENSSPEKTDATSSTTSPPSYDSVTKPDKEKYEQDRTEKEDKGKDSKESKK

The test concerns the target Sodium channel protein type 9 subunit alpha (Homo sapiens, UniProt Q15858). The test is described as follows: Compound effects were measured on a partially inactivated state of the sodium channel. Cells were clamped to a holding potential yielding 20 to 50% inactivation. To elicit sodium current, channels were activated by pulsing to -10 mV for 20 msec. This voltage protocol was repeated at a rate of 0.1 Hz throughout the experiment. The class given is cell-based, Sf9.

As to `COc1cc(-c2cccc(Cl)c2C)c(C)cc1-n1c(=O)ccc2cc(S(=O)(=O)Nc3ncccn3)ccc21`, the IC50 came to 17 nM.
The result for `COc1cc(-c2ccc(Cl)c(C#N)c2)c(F)cc1-n1c(=O)ccc2cc(S(=O)(=O)Nc3cccnn3)ccc21` reads 17 nM.
